{
  "sequences": {"note": "Chains of the proteins cited; added tags and fusions are not shown. Lines headed by an entry give the natural chain unless they say otherwise; changes in a name come on top.", "UniProt P21728": "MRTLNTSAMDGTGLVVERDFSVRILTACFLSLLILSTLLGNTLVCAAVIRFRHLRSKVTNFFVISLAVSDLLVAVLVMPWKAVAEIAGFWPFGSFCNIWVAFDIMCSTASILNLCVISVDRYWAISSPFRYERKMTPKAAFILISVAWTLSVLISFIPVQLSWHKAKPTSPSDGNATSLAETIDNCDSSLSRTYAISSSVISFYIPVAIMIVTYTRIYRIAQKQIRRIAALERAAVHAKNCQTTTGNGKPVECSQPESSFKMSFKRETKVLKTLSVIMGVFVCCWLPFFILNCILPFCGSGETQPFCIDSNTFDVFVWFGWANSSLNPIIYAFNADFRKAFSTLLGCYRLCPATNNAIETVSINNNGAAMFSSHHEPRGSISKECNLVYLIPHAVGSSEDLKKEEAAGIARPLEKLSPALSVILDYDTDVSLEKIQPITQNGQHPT"},
  "source": "paper PMC6747318",
  "about": "“Mutual Enhancement of Opioid and Adrenergic Receptors by Combinations of Opioids and Adrenergic Ligands Is Reflected in Molecular Complementarity of Ligands: Drug Development Possibilities” (International Journal of Molecular Sciences, 2019)",
  "key": {"[1]": {"molecular_target": "T1, dopamine D1 receptor (D1DR) 170–188 (Homo sapiens, UniProt P21728)", "T1 construct": "D1DR 170–188", "assay": "UV spectroscopy binding to receptor peptide D1DR 170–188"}, "[2]": {"molecular_target": "T2, dopamine D1 receptor (D1DR) 89–98 (Homo sapiens, UniProt P21728)", "T2 construct": "D1DR 89–98", "assay": "UV spectroscopy binding to receptor peptide D1DR 89–98"}},
  "data": [
    {"smiles": "CC(N)Cc1ccccc1", "note": "(centres unmarked) [Amphetamine]", "values": [
      {"measurement": "Kd", "setting": "[1]", "result": 230, "unit": "µM"},
      {"measurement": "Kd", "setting": "[2]", "result": 530, "unit": "µM"}
    ]}
  ]
}
